Data as given in PMC5080452 (Bioorganic & Medicinal Chemistry, 2016).

Amino acid sequences for entries named in this document (tags omitted). Residues count along the entry.
UniProt O42275, 24-633: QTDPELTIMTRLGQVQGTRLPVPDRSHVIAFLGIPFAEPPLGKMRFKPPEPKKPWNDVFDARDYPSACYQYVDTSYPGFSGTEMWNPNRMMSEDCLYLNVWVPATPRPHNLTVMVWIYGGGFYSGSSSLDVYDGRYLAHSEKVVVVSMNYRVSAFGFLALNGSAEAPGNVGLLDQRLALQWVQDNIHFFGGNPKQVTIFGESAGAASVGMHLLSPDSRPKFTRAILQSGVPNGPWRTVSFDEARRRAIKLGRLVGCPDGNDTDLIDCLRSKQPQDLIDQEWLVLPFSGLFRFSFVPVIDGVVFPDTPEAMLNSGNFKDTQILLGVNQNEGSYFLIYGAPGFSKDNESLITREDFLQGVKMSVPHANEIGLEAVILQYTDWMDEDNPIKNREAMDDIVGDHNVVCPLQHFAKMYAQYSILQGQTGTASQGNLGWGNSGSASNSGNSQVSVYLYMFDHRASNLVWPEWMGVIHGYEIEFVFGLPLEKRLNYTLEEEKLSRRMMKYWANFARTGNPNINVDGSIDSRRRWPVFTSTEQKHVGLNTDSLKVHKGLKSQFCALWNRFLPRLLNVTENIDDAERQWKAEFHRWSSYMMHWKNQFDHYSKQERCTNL

Molecular target: T1, Electrophorus electricus (Ee) AChE (Electrophorus electricus, UniProt O42275)
T1 construct: purchased Sigma-Aldrich
Assay: Acetylcholinesterase inhibitory activity (Ellman method)
Type: biochemical

N=C(N)NCCCCCCCCCNc1c2c(nc3ccccc13)CCCC2 [15e, 1-{9-[(1,2,3,4-Tetrahydroacridin-9-yl)amino]nonyl}guanidine]
decrease in AChE inhibitory activity relative to huprine Y (EeAChE IC50 values): 100 fold
anticholinesterasic activity relative to activity against trypanosomes (greater) (EeAChE IC50 vs T. brucei IC50): 4 fold
